Yeast mating assay 1: variants of the scFv Ab-14

The target is the same throughout: PDVDLGDISGINAS, from the HR2 region of SARS-CoV-2 spike.

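The parent was found by panning a naive human phage display library on the peptide. Library AAYL50 holds single substitutions and randomly drawn double and triple substitutions in the CDRs. In AlphaSeq, yeast of one mating type display the scFv and yeast of the other type display the target. The frequency of each diploid, read from paired DNA barcodes, reflects how well the two displayed proteins bind. Read counts were normalised to the haploid input and turned into Kd by a linear fit to BCL2-family pairs of known affinity, for each replicate. Each pool was mated in three replicate cultures.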

Parent scFv Ab-14: VH joined to VL by the linker GGGGSGGGGSGGGGS. Changes lie in the light chain CDRs alone.
VH: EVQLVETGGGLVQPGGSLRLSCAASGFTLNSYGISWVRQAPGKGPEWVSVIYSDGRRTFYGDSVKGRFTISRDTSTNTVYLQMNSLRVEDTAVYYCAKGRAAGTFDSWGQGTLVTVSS
VL: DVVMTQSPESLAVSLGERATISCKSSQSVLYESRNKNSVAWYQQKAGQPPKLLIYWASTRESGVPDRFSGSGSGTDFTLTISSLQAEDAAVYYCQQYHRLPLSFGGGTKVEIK

The parent's light chain CDRs are KSSQSVLYESRNKNSVA, WASTRES, QQYHRLPLS; each variant's own CDRs replace them letter for letter.
Numbers give log10(Kd / nM), so 0 is 1 nM and 3 is 1 µM. Smaller is tighter.
"n.d." marks a missing value. The strain was present, yet no cells mated with the target were sequenced in that replicate, which points to weak or no binding.
Empty control strains, which show no peptide, gave a signal in 18% of pairings with library AAYL50; the median was 4.19 and 95% of these signals were weaker than 2.99. No background was subtracted. For each scFv, signals with the empty controls are counted beside the result, with their mean in brackets.

CDR-L1 | CDR-L2 | CDR-L3 | log10 Kd, replicates | control signals
FSSQSVLYESRNKNSVA | WGSTRES | QQYCRLPLS | 1.86 2.08 1.73 | 0 of 9
KWSQSVLYESRNKNEVA | WASTRES | QQYIRLPLS | 3.15 n.d. n.d. | 0 of 9
KSSQYVLYESREKNSVA | WASARES | QQYHRLPLS | n.d. n.d. n.d. | 0 of 9
KSSQSVLYERRNKNSVV | WASTRES | QQYHRLPLS | n.d. n.d. 5.64 | 1 of 9 (4.57)
LSSQAVLYPSRNKNSVA | WASTRES | QQYHRLPLS | 2.67 2.68 2.77 | 1 of 9 (4.41)
KSVQSVLYEIRNKNSVA | WASTRES | QQYVRLPLS | n.d. n.d. n.d. | 1 of 9 (3.18)
KSSQSVKYESRNKNSVQ | WASTPES | QQYHRLPLS | n.d. n.d. n.d. | 1 of 9 (3.11)
KSSQSVRNESRNKNSVA | WASTRES | QQYHRLPLS | 1.04 1.32 1.44 | 4 of 9 (3.86)
KSSQSVLYESRNKISVR | WASTREG | QQYHRLPLS | n.d. n.d. n.d. | 1 of 9 (3.44)
KSSQSVLYESRNKNLVA | WASTRES | QQYHMLPLS | 1.92 2.13 3.94 | 2 of 9 (3.90)
KSSQSVLYESRNKNAVA | WASTREF | CQYHRLPLS | 4.74 n.d. 2.52 | 0 of 9
KSSESVLYESRNKNSLA | CASTRES | QQYHRLPLS | 2.82 2.99 3.19 | 4 of 9 (4.22)
KSSQSVLYESRNRNSVA | WASTRES | GQYHRLPNS | 3.35 3.01 4.04 | 0 of 9
KSSQSVLYDSRNKNSTA | WASTYES | QQYHRLPLS | 4.12 n.d. 4.49 | 2 of 9 (4.59)
RSSQSVLYESRNKNCVA | WASTRES | QQYHRCPLS | n.d. n.d. 3.56 | 0 of 9
KSSQSVEYESRNKNSVA | WASTRES | QQYHHLPLS | 2.24 2.48 2.59 | 3 of 9 (4.28)
CSSQSVHYESRNKNSVA | WASTRES | QQYHRLPLM | n.d. n.d. n.d. | 0 of 9
KSSGSVLQESRNKNSVA | WASTRES | QQYHRLPQS | 0.59 0.65 0.74 | 0 of 9
KPSQSVLYESRNKNSVA | WASTRWS | QQIHRLPLS | n.d. n.d. 3.10 | 0 of 9
KSVQSVLYESRNKNSVT | WASTRES | QQGHRLPLS | 4.45 n.d. n.d. | 3 of 9 (4.22)
KSSQSVGYESRNKNSVA | WASARES | QPYHRLPLS | n.d. n.d. 4.41 | 1 of 9 (4.01)
LSSQSVEYESRNKNSVA | WASTRES | GQYHRLPLS | 0.96 1.09 0.91 | 2 of 9 (3.84)
KSSQHVLYESRNKNSVA | LASLRES | QQYHRLPLS | 1.53 1.60 1.86 | 5 of 9 (4.01)
KSSQSWLYESSNKNSVA | WASTRES | QQYHRLPLQ | 1.33 1.39 1.68 | 0 of 9
KSSQSVLYESREKNSVS | WASTRES | QQYHRLPLS | n.d. 2.83 n.d. | 0 of 9
ESSQSVLYNSRNKNSVA | WASTRES | FQYHRLPLS | 2.70 5.03 n.d. | 3 of 9 (3.45)
KSSQSVLYEDRNKNSVA | WASTRES | QWYHRLPLS | 0.67 0.87 1.01 | 3 of 9 (4.14)
KSSQSYLYCSRNKNSVA | QASTRES | QQYHRLPLS | 0.49 0.69 0.62 | 0 of 9
KSSQSVLYESMNKNMVA | WASHRES | QQYHRLPLS | 1.31 1.50 1.58 | 1 of 9 (4.85)
KSSQSVLYESRNANSVA | WASTRES | QQYNRLPVS | 0.72 0.88 0.67 | 5 of 9 (4.76)
KSSQSVLYESRNKNSVA | WASSRED | QQYHRLCLS | n.d. 3.13 n.d. | 4 of 9 (3.78)
KSSQSVLREIRNKNSVA | SASTRES | QQYHRLPLS | 0.56 0.89 0.75 | 2 of 9 (3.34)
KSSQSVWYESRNKNSVA | WASGRES | QQYHRLPQS | n.d. n.d. n.d. | 2 of 9 (4.40)
KSSQSVLYESRNKNKVA | WASTREG | QQYHILPLS | n.d. n.d. n.d. | 1 of 9 (5.18)
KSSQSVLYESRNQNSVA | WASTDES | QQQHRLPLS | n.d. n.d. n.d. | 0 of 9
KSSQSVLYESRNKTSVA | IASERES | QQYHRLPLS | 4.10 n.d. n.d. | 2 of 9 (3.07)
KSSQSELYESRNKDSVA | WASTRES | QQYHRLPFS | n.d. 3.30 n.d. | 0 of 9
KASRSVLYESRNKNSNA | WASTRES | QQYHRLPLS | n.d. 4.36 n.d. | 1 of 9 (3.88)
KSSQSVLYECRNKNSRA | WASERES | QQYHRLPLS | n.d. n.d. n.d. | 4 of 9 (4.24)
KSSQSVLYEDRNKLSVA | WASTRES | QQYHRGPLS | n.d. n.d. n.d. | 0 of 9
KSSQSVLYESRNKNFVA | WASFRES | QQYHRLPES | 4.56 5.06 4.87 | 1 of 9 (3.68)
KMSQSVLYESRNKNSVA | WPSTRES | QQYSRLPLS | 1.37 1.77 1.94 | 2 of 9 (3.76)
KSSQVVLYESRNKESVA | WASTRES | SQYHRLPLS | 5.48 3.35 3.98 | 2 of 9 (4.72)
KSSQSVLYESRNKNAVA | WASTYES | QQYHRLPLS | n.d. 3.72 2.97 | 0 of 9
KSSQSVLYESRNKNSVA | WASTRES | QQYHALPQG | 3.08 2.56 2.81 | 0 of 9

The first 6 variants above that were never detected:

CDR-L1 | CDR-L2 | CDR-L3 | log10 Kd, replicates | control signals
KSSQYVLYESREKNSVA | WASARES | QQYHRLPLS | n.d. n.d. n.d. | 0 of 9
KSVQSVLYEIRNKNSVA | WASTRES | QQYVRLPLS | n.d. n.d. n.d. | 1 of 9 (3.18)
KSSQSVKYESRNKNSVQ | WASTPES | QQYHRLPLS | n.d. n.d. n.d. | 1 of 9 (3.11)
KSSQSVLYESRNKISVR | WASTREG | QQYHRLPLS | n.d. n.d. n.d. | 1 of 9 (3.44)
CSSQSVHYESRNKNSVA | WASTRES | QQYHRLPLM | n.d. n.d. n.d. | 0 of 9
KSSQSVWYESRNKNSVA | WASGRES | QQYHRLPQS | n.d. n.d. n.d. | 2 of 9 (4.40)

Values reported by Engelhart et al. 2022, doi:10.1038/s41597-022-01779-4 (FLAb copy).